In ChEMBL document CHEMBL1144753, “Inhibitors of DNA polymerase beta: activity and mechanism” (Bioorg Med Chem, 2008):

Target: DNA polymerase beta (Rattus norvegicus) (UniProt P06766)
Assay: Inhibition of DNA-polymerase beta binary complex formation by DNA binding mobility shift assay

Activity: Active
Structure (SMILES): O=c1ccc2ccc(Oc3cc4ccc(O)cc4oc3=O)cc2o1 [EDGEWORIN]

The source made the active and inactive calls. The rule behind the calls is not given here.
